Measurements: ChEMBL document CHEMBL4354838, “Synthesis and in Vitro and in Vivo Biological Evaluation of Tissue-Specific Bisthiazole Histone Deacetylase (HDAC) Inhibitors” (J Med Chem, 2020)

Sequences of proteins named here, by UniProt entry; tags and fusion partners are left off.
UniProt Q13547, whole entry: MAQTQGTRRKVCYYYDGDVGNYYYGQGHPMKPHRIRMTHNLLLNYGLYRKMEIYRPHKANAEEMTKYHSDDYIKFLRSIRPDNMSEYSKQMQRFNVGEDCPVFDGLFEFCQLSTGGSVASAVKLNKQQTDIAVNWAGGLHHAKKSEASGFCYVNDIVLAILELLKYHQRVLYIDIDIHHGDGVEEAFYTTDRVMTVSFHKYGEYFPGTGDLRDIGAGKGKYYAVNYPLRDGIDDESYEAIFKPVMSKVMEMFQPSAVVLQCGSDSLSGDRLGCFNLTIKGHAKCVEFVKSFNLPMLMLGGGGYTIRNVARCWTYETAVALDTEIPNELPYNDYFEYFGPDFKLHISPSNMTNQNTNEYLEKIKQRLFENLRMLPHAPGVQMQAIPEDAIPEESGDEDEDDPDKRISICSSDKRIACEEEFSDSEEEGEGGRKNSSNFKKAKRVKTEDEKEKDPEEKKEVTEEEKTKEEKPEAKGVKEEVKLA

Biological target: Histone deacetylase 1 (Homo sapiens, UniProt Q13547)
Test: biochemical
Assay type: cell-based

C[C@@H](NC(=O)c1nc(-c2nccs2)sc1C1CC1)c1ccc(C(=O)NO)cc1
pIC50: 6.55

pIC50: −log10 of the molar value.
